Legend:
MCF-7 cells = test: [3H]-thymidine incorporation assay in MCF-7 cells; type: cell-based, Human; conditions: serum-starved, 24 hours, with MNF
Method: (§1) Cells were seeded in 12-well plates at approximately 50,000 cells/well and incubated at 37° C. After 24 hours, the wells were rinsed with PBS and replaced with serum-free medium containing the appropriate concentration of the test compounds. After another 24-hour incubation at 37° C., 1 μCi of [^3H]-thymidine was added to each well and incubated at 37° C. for 16 hours. […] The lysate was then mixed with 3 mL of liquid scintillation cocktail (Beckman Coulter, Inc., Brea, Calif.), and radioactivity was measured by liquid scintillation counting using Beckman Coulter LS6000IC Scintillation Counter. Data are shown as CPM incorporated compared to the control cells.
(§2) CF-7 cells and MDA-MB-231 cells were seeded out on E-Plates and allowed to settle. Cells were stimulated with MNF. Cellular proliferation and adherence was measured every 15 minutes using xCELLigence RTCA station. The serum-starved cells were incubated with various amounts of (R,R′)-MNF concentrations for 24 hours and the levels of [3H]thymidine incorporation were measured.

MDA-MB-231 cells = test: [3H]-thymidine incorporation assay in MDA-MB-231 cells; type: cell-based, Human; conditions: serum-starved, 24 hours, with MNF
Method: as §1, §2

Cc1c(C(=O)NN2CCCCC2)nn(-c2ccc(Cl)cc2Cl)c1-c1ccc(I)cc1 [AM251, 1-(2,4-dichlorophenyl)-5-(4-iodophenyl)-4-methyl-N-(1-piperidyl)pyrazole-3-carboxamide]
blocking of the inhibitory effect of MNF on [3H]thymidine incorporation (MCF-7 cells): blocked | blocking of the inhibitory effect of MNF on [3H]thymidine incorporation (MDA-MB-231 cells): blocked
